Experimental data reported in patent US20160022760A1, “METHODS OF TREATING CELIAC DISEASE WITH LARAZOTIDE” (priority 2014, published 2016).
Where no end group is shown, it is not given here.

What was measured:
[1] = test system: subjects with celiac disease; test: Phase IIb study: clinical laboratory values (hematology, chemistry)
[2] = test system: subjects with celiac disease; settings: in vivo
[3] = test system: subjects with celiac disease; test: Phase IIb study: twelve-lead electrocardiograms; assay type: in vivo, human
Text: Twelve-lead ECGs were obtained at screening and at Visit 6 or early termination (Table 2).
For continuous variables, changes from baseline to each time point were summarized with the number of nonmissing values, mean, standard deviation, median, and minimum and maximum values. For categorical variables, subject counts and percentages were provided. Results of ECGs were classified as normal; abnormal, not clinically significant, and abnormal, clinically significant, as specified on the ECG page of the eCRF. Summaries were presented by treatment group.

[4] = 1 mg TID, end of treatment, Safety Population
[5] = 2 mg TID, N = 87, treatment period, Safety Population
[6] = 2 mg TID, end of treatment, Safety Population
[7] = all treatment groups, end of treatment

GGVLVQPG (SEQ ID NO:1) [Larazotide acetate]
Alkaline phosphatase, Mean Value [1, 4]: 63.3 IU/L | BUN, Mean Value [1, 4]: 12.9 mg/dL | Basophils, Mean Value [1, 4]: 0.3% | Calcium, Mean Value [1, 4]: 9.4 mg/dL | Chloride, Mean Value [1, 4]: 103.8 mmol/L | Creatinine, Mean Value [1, 4]: 0.8 mg/dL | Eosinophils, Mean Value [1, 4]: 2.4% | Glucose (random), Mean Value [1, 4]: 93.1 mg/dL | Hematocrit, Mean Value [1, 4]: 40.3% | Hemoglobin, Mean Value [1, 4]: 13.5 g/dL | Lymphocytes, Mean Value [1, 4]: 29.2% | Monocytes, Mean Value [1, 4]: 7.4% | Neutrophils, Mean Value [1, 4]: 60.8% | Platelet count, Mean Value [1, 4]: 250 K/μL | Potassium, Mean Value [1, 4]: 4.1 mmol/L | Sodium, Mean Value [1, 4]: 138.1 mmol/L | Total bilirubin, Mean Value [1, 4]: 0.5 mg/dL | White blood cells, Mean Value [1, 4]: 6.2 K/μL | Proportion of subjects who developed potentially clinically significant abnormal laboratory values during the treatment period ([1]; 2 mg TID): 19.5% | PCS abnormal ALT (≧3 × ULN), subjects n [1, 5]: 0 | PCS abnormal AST (≧3 × ULN), subjects n [1, 5]: 0 | PCS abnormal Alkaline phosphatase (≧3 × ULN), subjects n [1, 5]: 0 | PCS abnormal Ferritin serum (≦0.75 × LLN), subjects % [1, 5]: (10.3) % | PCS abnormal Ferritin serum (≦0.75 × LLN), subjects n [1, 5]: 9 | PCS abnormal Glucose random (≦0.75 × LLN), subjects % [1, 5]: (2.3) % | PCS abnormal Glucose random (≦0.75 × LLN), subjects n [1, 5]: 2 | PCS abnormal Hematocrit (≦0.75 × LLN), subjects n [1, 5]: 0 | PCS abnormal Hemoglobin (≦0.75 × LLN), subjects n [1, 5]: 0 | PCS abnormal Lymphocytes (≦0.75 × LLN or ≧1.5 × ULN), subjects % [1, 5]: (5.7) % | PCS abnormal Lymphocytes (≦0.75 × LLN or ≧1.5 × ULN), subjects n [1, 5]: 5 | PCS abnormal Neutrophils (≦0.75 × LLN or ≧1.5 × ULN), subjects % [1, 5]: (2.3) % | PCS abnormal Neutrophils (≦0.75 × LLN or ≧1.5 × ULN), subjects n [1, 5]: 2 | PCS abnormal White blood cells (≦0.75 × LLN or ≧1.5 × ULN), subjects n [1, 5]: 0 | Subjects with at least 1 PCS abnormal test, % [1, 5]: (19.5) % | ALT, Mean Change From Baseline to End of Treatment ([1]; 2 mg TID, Safety Population): −0.6 IU/L | AST, Mean Change From Baseline to End of Treatment ([1]; 2 mg TID, Safety Population): −0.9 IU/L | Albumin, Mean Change From Baseline to End of Treatment ([1]; 2 mg TID, Safety Population): 0.0 g/dL | Alkaline phosphatase, Mean Change From Baseline to End of Treatment ([1]; 2 mg TID, Safety Population): −0.4 IU/L | BUN, Mean Change From Baseline to End of Treatment ([1]; 2 mg TID, Safety Population): 1.0 mg/dL | Basophils, Mean Change From Baseline to End of Treatment ([1]; 2 mg TID, Safety Population): 0% | Calcium, Mean Change From Baseline to End of Treatment ([1]; 2 mg TID, Safety Population): -0.0 mg/dL | Chloride, Mean Change From Baseline to End of Treatment ([1]; 2 mg TID, Safety Population): -0.7 mmol/L | Creatinine, Mean Change From Baseline to End of Treatment ([1]; 2 mg TID, Safety Population): 0.0 mg/dL | Eosinophils, Mean Change From Baseline to End of Treatment ([1]; 2 mg TID, Safety Population): 0% | Glucose (random), Mean Change From Baseline to End of Treatment ([1]; 2 mg TID, Safety Population): 0.2 mg/dL | Hematocrit, Mean Change From Baseline to End of Treatment ([1]; 2 mg TID, Safety Population): 0.4% | Hemoglobin, Mean Change From Baseline to End of Treatment ([1]; 2 mg TID, Safety Population): 0.1 g/dL | Lymphocytes, Mean Change From Baseline to End of Treatment ([1]; 2 mg TID, Safety Population): 0.9% | Monocytes, Mean Change From Baseline to End of Treatment ([1]; 2 mg TID, Safety Population): −0.4% | Neutrophils, Mean Change From Baseline to End of Treatment ([1]; 2 mg TID, Safety Population): −0.6% | Platelet count, Mean Change From Baseline to End of Treatment ([1]; 2 mg TID, Safety Population): 3.1 K/μL | Potassium, Mean Change From Baseline to End of Treatment ([1]; 2 mg TID, Safety Population): -0.1 mmol/L | Sodium, Mean Change From Baseline to End of Treatment ([1]; 2 mg TID, Safety Population): -1.0 mmol/L | Total bilirubin, Mean Change From Baseline to End of Treatment ([1]; 2 mg TID, Safety Population): -0.0 mg/dL | White blood cells, Mean Change From Baseline to End of Treatment ([1]; 2 mg TID, Safety Population): 0.2 K/μL | ALT, Mean Value [1, 6]: 22.2 IU/L | AST, Mean Value [1, 6]: 22.9 IU/L | Albumin, Mean Value [1, 6]: 4.2 g/dL | Alkaline phosphatase, Mean Value [1, 6]: 64.2 IU/L | BUN, Mean Value [1, 6]: 13.0 mg/dL | Basophils, Mean Value [1, 6]: 0.4% | Calcium, Mean Value [1, 6]: 9.4 mg/dL | Chloride, Mean Value [1, 6]: 103.6 mmol/L | Creatinine, Mean Value [1, 6]: 0.8 mg/dL | Eosinophils, Mean Value [1, 6]: 3.2% | Glucose (random), Mean Value [1, 6]: 90.9 mg/dL | Hematocrit, Mean Value [1, 6]: 40.5% | Hemoglobin, Mean Value [1, 6]: 13.6 g/dL | Lymphocytes, Mean Value [1, 6]: 30.5% | Monocytes, Mean Value [1, 6]: 7.5% | Neutrophils, Mean Value [1, 6]: 58.5% | Platelet count, Mean Value [1, 6]: 253.3 K/μL | Potassium, Mean Value [1, 6]: 4.2 mmol/L | Sodium, Mean Value [1, 6]: 138.1 mmol/L | Total bilirubin, Mean Value [1, 6]: 0.5 mg/dL | White blood cells, Mean Value [1, 6]: 5.8 K/μL | Shifts in hematology or chemistry parameters, in words ([1]; Week 4, end of treatment, end of follow-up): None of the shifts in hematology or chemistry parameters were of clinical concern | Mean changes from baseline in chemistry parameters, in words [1, 7]: None of the mean changes in chemistry parameters were considered to be clinically significant | Mean changes from baseline in hematology parameters, in words [1, 7]: None of the mean changes in hematology parameters were considered to be clinically significant | Deaths in the study, in words [2]: No subjects died | Incidence of constipation (treatment-emergent) [2]: 5.9% | Incidence of gastro-oesophageal reflux disease (treatment-emergent) [2]: 3.5% | Incidence of gastrointestinal disorders (treatment-emergent) [2]: 29.3% | Incidence of headache (treatment-emergent) [2]: 5.1% | Incidence of infections and infestations (treatment-emergent) [2]: 25.0% | Incidence of nausea (treatment-emergent) [2]: 7.0% | Incidence of serious adverse events [2]: 0.8% | Incidence of severe treatment-emergent adverse events [2]: 4.3% | Incidence of treatment-emergent adverse events leading to withdrawal from the study [2]: 4.7% | Incidence of upper respiratory tract infection (treatment-emergent) [2]: 2.3% | Incidence of vomiting (treatment-emergent) [2]: 2.7% | Number of subjects with treatment-emergent serious adverse events [2]: 2 subjects | Relationship of treatment-emergent serious adverse events to study drug, in words [2]: none was considered by the Investigator to be related to study drug | TEAE that led to withdrawal: Serious [2]: No | Tolerability and safety profile, in words [2]: well tolerated | Subjects with clinically significant abnormal ECG finding ([3]; 2 mg group, Study Day 93, placebo run-out phase, possibly due to hypertension): One subject | ECGs at screening and end of treatment, in words ([3]; all treatment groups): None of the ECGs performed at screening and the end of treatment were considered clinically significant
